# Measurements from ChEMBL document CHEMBL5365484, “Discovery and Characterization of Novel CNS-Penetrant GPR55 Agonists” (J Med Chem, 2023).
# The chains behind the UniProt entries cited, without tags or fusion partners.
# UniProt Q01959, whole entry: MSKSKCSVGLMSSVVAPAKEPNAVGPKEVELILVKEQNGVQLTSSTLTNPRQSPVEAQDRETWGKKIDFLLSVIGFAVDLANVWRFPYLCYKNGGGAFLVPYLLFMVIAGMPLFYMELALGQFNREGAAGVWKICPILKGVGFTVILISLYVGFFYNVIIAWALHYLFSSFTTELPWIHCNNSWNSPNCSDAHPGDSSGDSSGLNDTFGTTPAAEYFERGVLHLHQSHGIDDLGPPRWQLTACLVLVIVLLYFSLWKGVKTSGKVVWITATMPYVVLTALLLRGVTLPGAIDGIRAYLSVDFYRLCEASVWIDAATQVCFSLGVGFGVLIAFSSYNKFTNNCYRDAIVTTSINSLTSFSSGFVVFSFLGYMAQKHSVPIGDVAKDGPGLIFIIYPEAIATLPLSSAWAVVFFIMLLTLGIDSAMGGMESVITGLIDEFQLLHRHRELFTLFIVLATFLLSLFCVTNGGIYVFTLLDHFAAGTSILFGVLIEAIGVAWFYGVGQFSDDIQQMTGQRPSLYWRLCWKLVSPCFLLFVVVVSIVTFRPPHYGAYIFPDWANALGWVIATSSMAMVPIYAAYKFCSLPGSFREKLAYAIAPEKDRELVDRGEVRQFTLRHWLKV
# UniProt P23975, whole entry: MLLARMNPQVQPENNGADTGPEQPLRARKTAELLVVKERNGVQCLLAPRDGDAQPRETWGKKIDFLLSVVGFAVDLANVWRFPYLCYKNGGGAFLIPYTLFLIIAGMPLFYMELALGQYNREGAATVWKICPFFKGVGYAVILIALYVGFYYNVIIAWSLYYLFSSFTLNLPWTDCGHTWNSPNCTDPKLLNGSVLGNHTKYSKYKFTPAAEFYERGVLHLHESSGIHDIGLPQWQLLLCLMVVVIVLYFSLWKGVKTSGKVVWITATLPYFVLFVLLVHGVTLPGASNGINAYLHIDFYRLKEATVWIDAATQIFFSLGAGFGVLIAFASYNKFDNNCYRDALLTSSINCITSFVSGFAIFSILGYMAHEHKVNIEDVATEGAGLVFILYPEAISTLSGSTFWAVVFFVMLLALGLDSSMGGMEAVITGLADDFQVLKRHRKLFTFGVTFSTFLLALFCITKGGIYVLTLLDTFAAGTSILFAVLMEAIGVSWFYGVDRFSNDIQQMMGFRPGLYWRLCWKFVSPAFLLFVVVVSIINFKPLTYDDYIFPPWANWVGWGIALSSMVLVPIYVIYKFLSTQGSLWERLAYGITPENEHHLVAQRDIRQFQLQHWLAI
# UniProt P21554, whole entry: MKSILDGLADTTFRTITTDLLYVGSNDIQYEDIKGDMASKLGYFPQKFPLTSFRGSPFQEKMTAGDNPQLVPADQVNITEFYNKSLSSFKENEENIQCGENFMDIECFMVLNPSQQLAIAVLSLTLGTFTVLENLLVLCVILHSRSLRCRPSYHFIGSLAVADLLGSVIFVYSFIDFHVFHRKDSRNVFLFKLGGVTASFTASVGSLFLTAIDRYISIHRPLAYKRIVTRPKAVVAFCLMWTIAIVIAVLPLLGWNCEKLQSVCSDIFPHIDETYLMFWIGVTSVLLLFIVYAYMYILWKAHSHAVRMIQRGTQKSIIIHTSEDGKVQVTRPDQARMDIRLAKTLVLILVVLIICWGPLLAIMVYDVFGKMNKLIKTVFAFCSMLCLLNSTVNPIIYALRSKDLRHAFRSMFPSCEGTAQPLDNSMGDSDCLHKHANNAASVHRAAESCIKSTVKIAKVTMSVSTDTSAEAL
# UniProt P34972, whole entry: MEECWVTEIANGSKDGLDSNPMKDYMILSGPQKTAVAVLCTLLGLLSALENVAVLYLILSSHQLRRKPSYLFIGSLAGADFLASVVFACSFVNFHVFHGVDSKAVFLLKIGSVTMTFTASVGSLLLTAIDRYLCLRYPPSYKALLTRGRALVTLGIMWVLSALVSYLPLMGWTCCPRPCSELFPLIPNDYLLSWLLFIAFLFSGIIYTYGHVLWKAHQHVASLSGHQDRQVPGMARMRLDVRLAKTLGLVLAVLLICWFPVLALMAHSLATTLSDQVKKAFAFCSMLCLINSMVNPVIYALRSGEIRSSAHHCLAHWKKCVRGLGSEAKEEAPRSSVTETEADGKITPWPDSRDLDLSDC
# UniProt P41595, whole entry: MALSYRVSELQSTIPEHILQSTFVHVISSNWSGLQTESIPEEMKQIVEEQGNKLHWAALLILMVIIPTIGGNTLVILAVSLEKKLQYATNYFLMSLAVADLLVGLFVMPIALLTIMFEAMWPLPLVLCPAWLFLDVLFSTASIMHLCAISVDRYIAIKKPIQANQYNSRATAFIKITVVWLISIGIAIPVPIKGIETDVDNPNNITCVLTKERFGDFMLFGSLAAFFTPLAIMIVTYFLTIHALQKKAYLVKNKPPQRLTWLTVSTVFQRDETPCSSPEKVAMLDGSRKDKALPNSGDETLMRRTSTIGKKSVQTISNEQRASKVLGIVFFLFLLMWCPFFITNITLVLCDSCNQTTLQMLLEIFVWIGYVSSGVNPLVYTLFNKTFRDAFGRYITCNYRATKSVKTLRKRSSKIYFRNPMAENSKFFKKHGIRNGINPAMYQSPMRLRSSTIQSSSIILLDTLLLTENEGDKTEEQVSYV
# Activity calls are given as the source filed them. The calls are words filed in the database; no cut-off is given here.
# Experiments:
# [1] = molecular target: Sodium-dependent dopamine transporter (Homo sapiens) (UniProt Q01959); assay: Displacement of [125I]RTI-55 from recombinant human dopamine transporter at 10 uM by radioligand binding assay
# [2] = molecular target: Sodium-dependent noradrenaline transporter (Homo sapiens) (UniProt P23975); assay: Displacement of [125I]RTI-55 from recombinant human norepinephrine transporter at 10 uM by radioligand binding assay
# [3] = molecular target: Cannabinoid receptor 1 (Homo sapiens) (UniProt P21554); assay: Displacement of [3H]SR141716A from recombinant human CB1 receptor at 10 uM by radioligand binding assay
# [4] = molecular target: Cannabinoid receptor 2 (Homo sapiens) (UniProt P34972); assay: Displacement of 3H]WIN-55212-2 from recombinant human CB2 receptor at 10 uM by radioligand binding assay
# [5] = molecular target: 5-hydroxytryptamine receptor 2B (Homo sapiens) (UniProt P41595); assay: Displacement of [3H]LSD from recombinant human 5-HT2B receptor at 10 uM by radioligand binding assay
inhibition [1],inhibition [2],inhibition [3],inhibition [4],inhibition [5],SMILES
53%,52%,inactive,inactive,–,C[C@@H](Nc1ncc(-c2ccc3oc(=O)n(C)c3c2)nn1)c1ccc(F)cc1
70%,41%,inactive,inactive,–,C[C@@H](Nc1ncc(-c2cncc(S(C)(=O)=O)c2)cn1)c1ccc(F)cc1
73%,64%,inactive,inactive,–,C[C@@H](Nc1cnc(-c2cncc(CC(F)(F)F)c2)cn1)c1ccc(F)cc1
–,83.7%,51%,–,60%,C[C@@H](Nc1ccc(-c2cccnc2)cn1)c1ccc(F)cc1
